{
  "source": "patent US6569458B1",
  "about": "“Process for producing small particles of biologically active molecules” (Alkermes Controlled Therapeutics, Inc., priority 1989, dated 2003)",
  "key": {"[1]": {"assay": "Particle size analysis of fragmented particles (Microtrac small particle analyzer)", "type": "physicochemical", "conditions": "100 mg ammonium bicarbonate/ml; ethyl acetate; ultrasonic irradiation", "experimental": "A 50 mg sample of the lyophilized microspheres was suspended in 5 ml of 100 percent ethanol solution and cooled in an ice water bath to 0° C. With continuous cooling, the HRP porous particles were then exposed to an ultrasonic probe (Virtis Company Inc., Virsonic 300) for different times. Samples were analyzed for particle size diameter on a Microtrac Model 7995 Small Particle Analyzer (Leeds and Northrup).\nThe hemoglobin particles were suspended in ethyl acetate and fragmented by subjecting them to ultrasonic irradiation with cooling by an ice bath."}, "[2]": {"assay": "Diameter of particles by light microscopy", "type": "physicochemical"}, "[3]": {"conditions": "5, 10 and 20 percent by weight of protein in 10 percent (w/v) ethylene-vinyl acetate in methylene chloride"}},
  "data": [
    {"substance": "Bovine serum albumin [BSA]", "values": [
      {"measurement": "particles less than 1.7 micrometers in diameter", "setting": "[1]", "result": "more than 60%"},
      {"measurement": "particle size under light microscopy", "setting": "[2]; 100 mg ammonium bicarbonate/ml, after ultrasonic irradiation, virtually all the particles", "result": "less than 1 micrometer"},
      {"measurement": "diameter of the porous spheres after lyophilization", "setting": "[2]; before sonication, range", "result": "20-30 micrometers"},
      {"measurement": "suspension stability", "setting": "[3]", "result": "stable suspensions"}
    ]}
  ]
}
